This note sets out measurements from article PMC9814792, “A platinum(IV) prodrug strategy to overcome glutathione-based oxaliplatin resistance” (Communications Chemistry, 2022).

In this assay the test system is HCT116/OxR cells. As to the kind of experiment: 72 h cell viability (MTT) assay. Type of assay: cell-based, human. As to conditions: IC50 HCT116/OxR divided by IC50 HCT116. Here is the method: Absorbance was measured at 450 nm (at 620 nm as reference) using the multimode plate reader Tecan Infinite 200 Pro (Zurich, Switzerland). Cytotoxicity was expressed as IC50 values calculated from full dose-response curves using the 4 parameter nonlinear regression model of GraphPad Prism 8 software (La Jolla, CA, USA).

Some results are limits rather than exact numbers.

In the case of `O=C1[O][Pt]2([NH][C@@H]3CCCC[C@H]3[NH]2)[O]C1=O` [oxaliplatin], the resistance factor is listed as greater than 17.2.
